Values quoted from earlier work as cited in patent publication US20110118243A1, “ANTI-INFLAMMATORY DRUG DELIVERY SYSTEM” (priority 2008, published 2011).

Settings: horse, over 24 hours

## CCCCC1C(=O)N(c2ccccc2)N(c2ccccc2)C1=O [phenylbutazone, 4-butyl-diphenyl-3,5-pyrazoidinedione]
  Share of administered dose accounted for by metabolites oxyphenbutazone and γ-hydroxyoxyphenbutazone: 25-30%
